The values below come from WO2019234021A1.

This test concerns the target Fcgamma Receptor IIIa (FcyRIIIa, CD16a) on NK cells or PBMCs (UniProt P08637). Description: cell-based or functional assay.

Consider sialylated adalimumab (A-S) (antibody), for which the fold increased potency over the H-M reference (EC50 ratio), ADCC in the presence of NK cells was 13 fold. Next, Man3-adalimumab (A-M) (antibody): 9 fold.
